According to ChEMBL document CHEMBL4354860, “Targeting the Regulatory Site of ER Aminopeptidase 1 Leads to the Discovery of a Natural Product Modulator of Antigen Presentation” (J Med Chem, 2020):
Calls of active or inactive are those of the source. The calls are words filed in the database; no cut-off is given here.

Sequences of proteins named here, by UniProt entry; tags and fusion partners are left off.
UniProt Q9NZ08, whole entry K685A: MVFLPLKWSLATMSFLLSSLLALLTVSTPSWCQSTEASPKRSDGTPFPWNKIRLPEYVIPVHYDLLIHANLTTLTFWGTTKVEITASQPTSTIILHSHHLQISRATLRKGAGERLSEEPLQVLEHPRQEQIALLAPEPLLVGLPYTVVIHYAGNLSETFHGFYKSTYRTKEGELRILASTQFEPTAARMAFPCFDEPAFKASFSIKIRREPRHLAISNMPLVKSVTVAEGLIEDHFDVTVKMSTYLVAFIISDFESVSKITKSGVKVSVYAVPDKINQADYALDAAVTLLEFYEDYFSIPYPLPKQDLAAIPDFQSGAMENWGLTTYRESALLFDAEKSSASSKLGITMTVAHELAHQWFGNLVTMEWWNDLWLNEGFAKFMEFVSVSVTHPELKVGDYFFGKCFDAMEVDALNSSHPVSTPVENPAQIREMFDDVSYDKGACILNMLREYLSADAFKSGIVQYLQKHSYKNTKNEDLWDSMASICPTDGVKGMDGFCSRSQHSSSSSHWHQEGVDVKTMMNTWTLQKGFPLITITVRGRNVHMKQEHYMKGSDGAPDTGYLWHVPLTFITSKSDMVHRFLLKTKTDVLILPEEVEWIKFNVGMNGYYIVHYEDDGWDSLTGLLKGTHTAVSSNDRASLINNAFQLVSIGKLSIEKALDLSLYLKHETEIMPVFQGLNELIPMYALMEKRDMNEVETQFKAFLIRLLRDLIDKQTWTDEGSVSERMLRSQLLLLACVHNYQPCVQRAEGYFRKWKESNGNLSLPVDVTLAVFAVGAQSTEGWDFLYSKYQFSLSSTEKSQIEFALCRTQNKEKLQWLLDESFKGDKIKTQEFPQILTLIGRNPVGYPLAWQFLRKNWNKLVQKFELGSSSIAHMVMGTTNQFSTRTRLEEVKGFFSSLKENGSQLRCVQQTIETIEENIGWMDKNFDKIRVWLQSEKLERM
UniProt Q9NZ08, whole entry Y684F: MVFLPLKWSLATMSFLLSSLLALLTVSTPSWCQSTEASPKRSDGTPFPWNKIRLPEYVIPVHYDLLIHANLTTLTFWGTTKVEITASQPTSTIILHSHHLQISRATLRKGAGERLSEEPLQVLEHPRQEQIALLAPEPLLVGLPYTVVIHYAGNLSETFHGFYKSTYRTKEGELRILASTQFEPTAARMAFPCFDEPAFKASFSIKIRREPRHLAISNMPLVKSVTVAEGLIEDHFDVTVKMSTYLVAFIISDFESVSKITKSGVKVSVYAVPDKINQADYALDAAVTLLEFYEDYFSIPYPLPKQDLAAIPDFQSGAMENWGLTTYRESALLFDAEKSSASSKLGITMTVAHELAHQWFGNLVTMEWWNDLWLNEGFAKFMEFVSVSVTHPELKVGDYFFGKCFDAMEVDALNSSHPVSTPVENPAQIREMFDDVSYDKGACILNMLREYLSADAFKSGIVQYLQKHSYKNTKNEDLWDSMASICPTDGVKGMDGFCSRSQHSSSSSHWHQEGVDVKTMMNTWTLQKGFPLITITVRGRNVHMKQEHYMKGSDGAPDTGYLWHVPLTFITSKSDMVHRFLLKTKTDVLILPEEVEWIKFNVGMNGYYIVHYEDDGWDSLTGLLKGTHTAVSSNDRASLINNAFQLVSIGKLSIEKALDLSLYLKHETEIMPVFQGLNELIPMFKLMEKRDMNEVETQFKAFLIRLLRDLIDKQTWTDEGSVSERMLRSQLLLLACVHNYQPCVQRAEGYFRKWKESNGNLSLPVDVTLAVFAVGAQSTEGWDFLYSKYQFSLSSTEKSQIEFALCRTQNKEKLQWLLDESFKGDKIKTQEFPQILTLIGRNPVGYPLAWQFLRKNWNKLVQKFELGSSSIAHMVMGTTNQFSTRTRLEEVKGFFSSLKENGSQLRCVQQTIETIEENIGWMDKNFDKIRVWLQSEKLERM
UniProt Q9NZ08, whole entry Y684F/K685A: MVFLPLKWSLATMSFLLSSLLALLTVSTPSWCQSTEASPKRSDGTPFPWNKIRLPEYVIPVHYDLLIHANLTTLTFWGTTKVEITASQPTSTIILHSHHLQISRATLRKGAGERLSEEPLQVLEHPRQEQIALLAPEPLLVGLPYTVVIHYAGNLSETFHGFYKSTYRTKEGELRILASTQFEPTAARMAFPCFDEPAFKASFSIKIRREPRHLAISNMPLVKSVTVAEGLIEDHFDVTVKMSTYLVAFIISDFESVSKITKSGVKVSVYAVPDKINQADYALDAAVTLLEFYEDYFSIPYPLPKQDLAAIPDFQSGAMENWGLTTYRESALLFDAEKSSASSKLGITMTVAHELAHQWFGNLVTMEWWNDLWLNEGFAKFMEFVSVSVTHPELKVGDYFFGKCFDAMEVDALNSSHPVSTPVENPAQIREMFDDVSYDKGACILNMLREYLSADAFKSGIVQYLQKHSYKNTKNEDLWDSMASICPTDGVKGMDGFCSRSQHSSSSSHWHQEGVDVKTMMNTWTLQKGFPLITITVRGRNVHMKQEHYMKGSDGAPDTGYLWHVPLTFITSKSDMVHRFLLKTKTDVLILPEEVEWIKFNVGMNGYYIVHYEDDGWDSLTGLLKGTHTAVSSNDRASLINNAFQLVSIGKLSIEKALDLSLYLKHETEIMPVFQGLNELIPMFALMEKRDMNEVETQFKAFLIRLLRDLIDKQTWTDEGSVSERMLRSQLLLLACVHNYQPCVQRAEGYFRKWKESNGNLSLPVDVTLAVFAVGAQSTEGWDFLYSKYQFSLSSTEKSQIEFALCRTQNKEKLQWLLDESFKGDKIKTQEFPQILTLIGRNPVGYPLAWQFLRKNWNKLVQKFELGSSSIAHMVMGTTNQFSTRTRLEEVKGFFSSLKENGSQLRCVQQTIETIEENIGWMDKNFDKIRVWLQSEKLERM
UniProt Q9NZ08, whole entry K685M: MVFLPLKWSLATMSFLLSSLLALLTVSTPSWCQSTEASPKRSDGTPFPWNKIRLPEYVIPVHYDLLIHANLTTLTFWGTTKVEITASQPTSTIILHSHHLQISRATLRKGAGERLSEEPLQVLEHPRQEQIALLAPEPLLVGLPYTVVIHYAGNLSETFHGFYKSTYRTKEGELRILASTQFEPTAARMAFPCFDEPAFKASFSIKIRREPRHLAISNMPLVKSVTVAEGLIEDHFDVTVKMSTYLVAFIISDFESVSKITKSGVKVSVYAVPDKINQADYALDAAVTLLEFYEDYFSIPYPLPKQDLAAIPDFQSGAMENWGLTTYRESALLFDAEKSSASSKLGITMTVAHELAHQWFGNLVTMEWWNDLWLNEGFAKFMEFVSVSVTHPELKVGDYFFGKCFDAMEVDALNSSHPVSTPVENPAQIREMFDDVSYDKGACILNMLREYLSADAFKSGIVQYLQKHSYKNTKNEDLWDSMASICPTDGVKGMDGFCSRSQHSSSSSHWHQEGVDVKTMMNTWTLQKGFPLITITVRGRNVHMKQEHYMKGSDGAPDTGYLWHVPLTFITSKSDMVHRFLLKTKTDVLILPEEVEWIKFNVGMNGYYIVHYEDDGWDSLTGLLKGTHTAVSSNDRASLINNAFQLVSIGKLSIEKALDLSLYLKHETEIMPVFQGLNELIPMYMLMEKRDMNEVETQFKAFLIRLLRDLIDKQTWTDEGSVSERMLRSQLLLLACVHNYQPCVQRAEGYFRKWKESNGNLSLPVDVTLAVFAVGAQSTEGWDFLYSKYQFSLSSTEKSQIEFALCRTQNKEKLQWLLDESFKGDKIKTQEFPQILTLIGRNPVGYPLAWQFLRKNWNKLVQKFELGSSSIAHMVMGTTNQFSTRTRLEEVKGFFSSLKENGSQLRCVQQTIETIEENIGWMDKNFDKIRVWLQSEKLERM

Columns and labels:
[1] = target: Endoplasmic reticulum aminopeptidase 1 (Homo sapiens) (UniProt Q9NZ08); test: Activation of full length C-terminal His6-tagged ERAP1 (unknown origin)-mediated antigenic epitope destruction assessed as trimming of 9mer peptide substrate YTAFTIPSI to 8mer peptide TAFTIPSI at 100 uM after 60 mins by Rapidfire-MS analysis
[2] = target: Endoplasmic reticulum aminopeptidase 1 (Homo sapiens) (UniProt Q9NZ08); test: Activation of human recombinant ERAP1 assessed as induction of substrate hydrolysis at 10 uM using Leu-AFC as substrate measured after 60 mins by fluorescence based analysis relative to control; design: scale not given: the % may be the effect or the level left
[3] = test system: Endoplasmic reticulum aminopeptidase 1 (Homo sapiens), Q9NZ08 [K685A]; test: Activation of full length C-terminal His6-tagged ERAP1 K685A mutant (unknown origin)-mediated substrate hydrolysis using Leu-AMC as substrate after 60 mins by Rapidfire-MS analysis
[4] = test system: Endoplasmic reticulum aminopeptidase 1 (Homo sapiens), Q9NZ08 [Y684F]; test: Activation of full length C-terminal His6-tagged ERAP1 Y684F mutant (unknown origin)-mediated substrate hydrolysis using Leu-AMC as substrate after 60 mins by Rapidfire-MS analysis
[5] = target: Endoplasmic reticulum aminopeptidase 1 (Homo sapiens) (UniProt Q9NZ08); test: Activation of human recombinant ERAP1 assessed as induction of substrate hydrolysis at 20 uM using Leu-AFC as substrate measured after 60 mins by fluorescence based analysis relative to control; design: scale not given: the % may be the effect or the level left
[6] = test system: Endoplasmic reticulum aminopeptidase 1 (Homo sapiens), Q9NZ08 [Y684F,K685A]; test: Activation of full length C-terminal His6-tagged ERAP1 Y684F/K685A double mutant (unknown origin)-mediated substrate hydrolysis using Leu-AMC as substrate after 60 mins by Rapidfire-MS analysis
[7] = target: Endoplasmic reticulum aminopeptidase 1 (Homo sapiens) (UniProt Q9NZ08); test: Allosteric competitive activation of full length C-terminal His6-tagged ERAP1 (unknown origin) assessed as decrease in K prime without change in Vmax at 400 to 800 nM using varying level of Leu-pNA as substrate measured up to 60 mins by Michaelis-Menten analysis
[8] = test system: Endoplasmic reticulum aminopeptidase 1 (Homo sapiens), Q9NZ08 [K685M]; test: Activation of full length C-terminal His6-tagged ERAP1 K685M mutant (unknown origin)-mediated substrate hydrolysis using Leu-AMC as substrate after 60 mins by Rapidfire-MS analysis

Activity [1]: inactive | Activity [2]: 161% | Activity [3]: inactive | Activity [4]: inactive | Activity [5]: 167% | Activity [6]: inactive | Activity [7]: Active | Activity [8]: inactive
Structure (SMILES): C[C@@H]1C[C@H](O)[C@@]2(C)C(C(=O)O)=CCC[C@@H]2[C@@]1(C)CCc1ccoc1.N
